Counter-ions that a name gives are not always drawn.
Assays:
[1] = tested on: dopamine D-1 receptors (cyclic AMP efflux, striatal tissue); assay: tissue or blood
Procedure: A second, particularly sensitive indicator of D-1 agonist activity is the determination of the cyclic AMP efflux in tissue slices using a procedure based on Stoof and Kebabian (loc. cit). In this procedure, striatal tissue is dissected from rat brains and chopped into 0.3 mm.×[…]. fragments. The tissue fragments are suspended in the appropriate buffer system (Earl's balanced salt solution, for example) and the suspension is continuously aerated with 95:5 O2 /CO2 while being maintained at 37° C. Just prior to use, the tissue fragments are transferred to fresh media to which is added bovine serum albumin (2.5 mg./ml.) and 3-isobutyl-1-methylxanthine (1 millimolar) to block degradation of cyclic AMP. The tissue fragments are incubated in buffer without drugs and are then transferred to the same media with added drug. Aliquots of incubation media, with and without drugs, are assayed for cyclic AMP concentration by a specific radioimmunoassay. The effect of the drug or drugs on efflux is expressed as a percentage of the resting efflux. The following medium was employed:
Sulpiride is known to be an antagonist on pituitary D-2 receptors. Addition of sulpiride to a test system, such as that described above, blocks any D-2 effect of a drug in reducing cyclic AMP production.

Amino acid sequences for entries named in this document (tags omitted).
UniProt P18901, whole entry: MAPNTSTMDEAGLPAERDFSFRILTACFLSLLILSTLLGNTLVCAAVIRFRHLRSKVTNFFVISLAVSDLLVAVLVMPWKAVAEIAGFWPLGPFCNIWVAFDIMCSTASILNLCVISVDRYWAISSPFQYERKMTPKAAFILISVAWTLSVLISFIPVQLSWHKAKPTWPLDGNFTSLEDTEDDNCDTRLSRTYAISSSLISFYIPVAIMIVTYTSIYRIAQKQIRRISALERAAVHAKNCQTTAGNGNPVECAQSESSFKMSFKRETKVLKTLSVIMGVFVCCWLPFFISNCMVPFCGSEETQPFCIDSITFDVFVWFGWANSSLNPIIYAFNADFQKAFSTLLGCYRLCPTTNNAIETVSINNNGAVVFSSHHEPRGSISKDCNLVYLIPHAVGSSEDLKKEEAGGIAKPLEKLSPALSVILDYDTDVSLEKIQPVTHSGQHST

[2] = biological target: dopamine D-1 receptors (adenylate cyclase in rat striatal membrane) (Rattus norvegicus, UniProt P18901); conditions: Table 1, p<0.025
[3] = A 5 × 10^-7 M plus sulpiride at 10^-6 M
[4] = Rattus norvegicus, read-out: % Increase in Cyclic AMP

Row | Structure (SMILES) | Cyclic AMP Concentration ([1]; 5 × 10^-6 M, rat striatal tissue fragments) | Cyclic AMP Concentration ([1]; 5 × 10^-7 M, rat striatal tissue fragments) | % Increase in Cyclic AMP [1, 3] | Cyclic AMP Concentration [1, 3] | activation at 0.5 µM [1, 4] | activation at 5 µM [1, 4] | significance of increase in cyclic AMP formation (D-1 agonist activity) [2] | D-2 agonist activity (dopamine D-2 receptors)
1 | CCCN1CCC[C@H]2Cc3[nH]ncc3C[C@@H]21 [A, 4aS,8aS-5-n-propyl-4,4a,5,6,7,8,8a,9-octahydro-1H(and 2H)-pyrazolo[3,4-g]quinoline dihydrochloride] | 160.1 ± 23.8 | 131.0 ± 9.2 | 100% | 143.7 ± 6.2 | 83% | 124% |  | 
2 | CCCN1CCC[C@H]2Cc3[nH]ncc3C[C@@H]21 [4aS, 8aS enantiomer, 4aS,8aS-5-n-propyl-4,4a,5,6,7,8,8a,9-octahydro-1H(and 2H)-pyrazolo[3,4-g]quinoline] |  |  |  |  |  |  | significantly increased cyclic AMP formation | without D-2 agonist activity

Source: US4528290A, “Stimulating dopamine D-1 receptors” (Eli Lilly and Company, priority 1984, dated 1985)
